From BindingDB's records for doi:10.1023/a:1006986824213 (1999)

The chains behind the UniProt entries cited, without tags or fusion partners.
UniProt P61169, whole entry: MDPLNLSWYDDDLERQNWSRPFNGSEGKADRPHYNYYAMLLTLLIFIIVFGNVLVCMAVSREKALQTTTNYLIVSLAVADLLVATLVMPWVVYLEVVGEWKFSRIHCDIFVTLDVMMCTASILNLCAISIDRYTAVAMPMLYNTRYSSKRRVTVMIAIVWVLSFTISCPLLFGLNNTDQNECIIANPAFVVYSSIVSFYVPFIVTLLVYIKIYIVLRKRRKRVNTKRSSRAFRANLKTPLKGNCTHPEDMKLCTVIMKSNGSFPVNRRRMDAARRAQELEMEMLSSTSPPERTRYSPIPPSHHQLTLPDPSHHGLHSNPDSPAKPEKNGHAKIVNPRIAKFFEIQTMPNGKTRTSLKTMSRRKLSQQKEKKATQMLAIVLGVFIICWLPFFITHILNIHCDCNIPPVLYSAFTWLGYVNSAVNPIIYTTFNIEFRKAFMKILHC
UniProt P23977, whole entry: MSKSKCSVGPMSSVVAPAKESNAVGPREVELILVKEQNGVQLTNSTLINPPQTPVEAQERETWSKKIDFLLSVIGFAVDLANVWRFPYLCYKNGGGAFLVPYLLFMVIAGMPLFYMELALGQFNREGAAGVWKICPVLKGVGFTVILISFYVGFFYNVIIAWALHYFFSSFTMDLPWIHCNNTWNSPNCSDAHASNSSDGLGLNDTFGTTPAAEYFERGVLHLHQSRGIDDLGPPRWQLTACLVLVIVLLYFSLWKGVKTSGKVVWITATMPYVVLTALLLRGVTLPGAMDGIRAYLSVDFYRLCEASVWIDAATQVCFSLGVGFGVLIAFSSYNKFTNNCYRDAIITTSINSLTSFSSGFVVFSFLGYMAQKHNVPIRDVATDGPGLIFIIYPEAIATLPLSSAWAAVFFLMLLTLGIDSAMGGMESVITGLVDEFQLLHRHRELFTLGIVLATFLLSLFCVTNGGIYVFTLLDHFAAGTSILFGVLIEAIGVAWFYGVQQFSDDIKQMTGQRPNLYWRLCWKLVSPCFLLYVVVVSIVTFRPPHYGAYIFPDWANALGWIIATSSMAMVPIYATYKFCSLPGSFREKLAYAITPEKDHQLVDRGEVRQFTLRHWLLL

Legend:
[1] = target: D(2) dopamine receptor (Rattus norvegicus, UniProt P61169)
[2] = target: Sodium-dependent dopamine transporter (Rattus norvegicus, UniProt P23977)
[3] = target: Norepinephrine transporter (Rattus norvegicus, UniProt Q9JIA2)

CCc1nn(CCCN2CCN(c3cccc(Cl)c3)CC2)c(=O)n1CCOc1ccccc1 [2-{3-[4-(3-chlorophenyl)piperazin-1-yl]propyl}-5-ethyl-4-(2-phenoxyethyl)-2,4-dihydro-3H-1,2,4-triazol-3-one] showed a Ki [1] of 180 nM.
Work on COc1ccc(C(CN(C)C)C2(O)CCCCC2)cc1 (stereo not drawn) [NSC_62923] yielded a Ki [2] of 2800 nM and a Ki [3] of 640 nM.
